In article PMC4738175 (Cancer letters, 2015):

Test system: phosphorylated ERK1/2
Experiment: Immunohistochemical staining of phosphorylated ERK1/2 in PK03 tumors
Conditions: 10mg/kg, n = 3 mice/group, vs PK03 control

Structure (SMILES): CNC(=O)c1cc(Oc2ccc(NC(=O)Nc3ccc(Cl)c(C(F)(F)F)c3)cc2)ccn1 [Sorafenib]
- staining intensity of phosphorylated ERK1/2: 63 ± 21.2
